Only a part is listed here, and it is no random draw. Records with an inconclusive call do not appear. Activity calls are given as the source filed them. The call rests on the fitted dose curve; in most records, active means well fitted activation curve with a large enough effect; inconclusive means small, poorly fitted or top-dose-only effect; inactive means no such curve, though single readings can be large or run the other way.

The nature of this assay: qHTS for Suppressors of FUS Proteinopathy: Primary screen using FUS-linked yeast assay.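 Further: plate controls were DMSO vehicle for no effect and reference control for full effect; nearly all actives have a fitted effect of over 55% in size.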 To be noted: S. cerevisiae FUS-expressing, OD600, 24 h; at 76.6 µM (top of the series). The text has this: Several widespread neurodegenerative diseases, including Alzheimer disease, Huntington disease, Frontotemporal Lobar Degeneration (FTLD) and Amyotrophic Lateral Sclerosis (ALS), share a common pathological feature, namely accumulation of specific protein aggregates in diseased tissue. These diseases which is associated with protein misfolding (proteinopathies) have become increasingly problematic as the population ages and life expectancies are extended. Most proteinopathies are currently incurable, a situation confounded by the fact that the basis of neurodegeneration is generally poorly understood. There exists urgent and significant need to find therapeutics that can inhibit the toxicity associated with protein aggregation. A novel approach to understand the underlying mechanisms of neurodegenerative diseases has recently emerged in which the disease conditions are modeled in the yeast (Saccharomyces cerevisiae), a tractable eukaryotic organism with conserved protein quality control mechanisms. Yeast offers quick and reliable genetic manipulations and can be easily tailored to high-throughput screening (HTS).
For this project, a yeast model of the FUS proteinopathies (a spectrum of neurodegenerative diseases that include ALS and a subtype of FTLD) was generated and employed. The cytoplasmic accumulation of the DNA/RNA-binding protein FUS (also known as TLS) is causative to both familial and sporadic forms of ALS and FTLD. This yeast model recapitulates neuronal pathology by showing severe cytotoxicity associated with cytoplasmic accumulation of FUS aggregates and a specific interaction between FUS and TDP-43, another ALS-associated protein. […] Specifically, the cellular accumulation of misfolded FUS that disrupts RNA homeostasis in both yeast and higher eukaryotes. This model was validated to be suitable for quantitative HTS (qHTS) use for finding genetic or chemical factors that restore growth. […] Identified compounds that inhibits FUS-yeast toxicity is flagged, re-acquired, and validated for further investigation and optimization.
NIH Chemical Genomics Center [NCGC]
NIH Molecular Libraries Probe Production Centers Network [MLPCN]
Assay Submitter (PI): Frank Shewmaker PhD, Uniformed Services University of the Health Sciences
Compound CP55940 was used as the positive control. Column 1 was treated with CP55940 titration from 92uM (final concentration, 1:2 dilution), while Column 2 was treated with top dose 92uM. Columns 3 and 4 were treated with DMSO only as negative control to assess background and noise signal.
Four hundred fifty microliter of cultured yeast (in 20mL rich medium) provided by Dr. Shewmaker lab was incubated at 30C at 99% humidity for 3hr. The culture was then spun down at 4000rpm for 5min and the cell pellet was resuspended in 2mL of Sdmin Media + ALU(330) + 2.5% Raffinose. One hundred microliter of the suspension was added to 900uL of water and OD of the solution was obtained. Twenty mL of responding medium (provided by Shewmaker lab) + 2.5% raffinose was added to ensure cell density of 0.1; the solution was incubated overnight. Working cell solution (FUS-yeast in Sdmi + Sdmi + 1X ALU + 2% galactose media) was prepared (final OD at 0.005) and 3uL was dispensed in a 1536-well Aurora high based clear bottom assay plates. Controls and library compounds (at various final concentrations from 40uM to 0.32uM) were added using a 1536-well pin array using the Kalypsys pin-tool. The plates were then incubated for 24hrs in a cell-culture incubator (30C; 99% humidity). Absorbance at 600nm was then read using the PerkinElmer ViewLux plate reader.
In general terms: In qHTS, concentration-response curves come from the screen itself.
In the case of `O=P1(N(CCCl)CCCl)OCCCS1` (stereo not drawn), the growth rescue (activation) is inactive: -0.738%. The same measure for `O=C(Nc1cc([As](=O)(O)O)ccc1O)c1ccccc1`: inactive: -27.1%; for `CCN(N=Nc1nonc1N)c1nonc1N`: inactive: -17.4%. The result for `Nc1cccc2ccc([As](=O)(O)O)cc12` reads inactive: -29.3%; that for `CCCC1OP(N)(=O)OCC1CC` (stereo not drawn), inactive: -10.5%. The result for `O=C(O)c1ccccc1[As](=O)(O)O` reads inactive: 8.73%; that for `CC(=O)Nc1ccc([As](=O)(O)O)cc1`, inactive: -7.86%.

For `CN(C)P(=O)(N(C)C)n1c(Nc2ccccc2)nnc1-c1ccccc1`, the growth rescue (activation) was inactive: 31.3%.

On to `O=P(Nc1nc2ccc(Cl)cc2s1)(c1ccccc1)c1ccccc1`, for which the growth rescue (activation) is inactive: 25.4%. For `CN(C(=O)Cc1ccc(Cl)c(Cl)c1)[C@H]1CCCC[C@@H]1N1CCCC1`, the growth rescue (activation) is inactive: -27.2%.

With `Cc1ccc(NP(=O)(Oc2ccccc2F)Oc2ccccc2F)nc1`, the growth rescue (activation) is inactive: 12%. The same measure for `CCOP(=O)(Nc1ccccc1)OCC`: inactive: 7.65%. In the case of `Cc1cc(SC(NC(=O)c2ccc(F)cc2)C(Cl)(Cl)Cl)ncn1` (stereo not drawn), the growth rescue (activation) was inactive: 12.1%. The result for `CC(C)CC(=O)NC(Sc1ccc(Cl)cc1)C(Cl)(Cl)Cl` (stereo not drawn) reads inactive: -10%. The result for `Nc1cc(N)c2nonc2c1[N+](=O)[O-]` reads inactive: 29.4%; that for `O=C(NC(Sc1ccncn1)C(Cl)(Cl)Cl)c1ccccc1` (stereo not drawn), inactive: 5.85%. The same measure for `Oc1ccccc1CNc1ccccn1`: inactive: -32.1%; for `O=[N+]([O-])C1C(O)C(O)C([N+](=O)[O-])C(O)C1O` (stereo not drawn): inactive: -22.5%. In the case of `NC(=O)c1cc([N+](=O)[O-])cc([N+](=O)[O-])c1N`, the growth rescue (activation) is inactive: 5.81%. Take `Cc1ccc(N/C(=N/P(=O)(N2CCOCC2)N2CCOCC2)N2CCOCC2)cc1`: the growth rescue (activation) was inactive: 18%.

On to `CN(C(=O)Cc1ccc(Cl)c(Cl)c1)[C@H]1CCCC[C@H]1N1CCCC1`, for which the growth rescue (activation) is inactive: -36.7%.

As to `Cc1ccc(OP(=O)(Nc2nccs2)Oc2ccc(C)cc2)cc1`, the growth rescue (activation) is inactive: -24.1%. With `COc1ccccc1OP(=O)(Nc1ccc(C)cn1)Oc1ccccc1OC`, the growth rescue (activation) is inactive: 13.3%.

Turning to `Clc1ccc(Cl)c(NC2=NCC(CBr)S2)c1` (stereo not drawn), the growth rescue (activation) is inactive: -0.0987%. Take `CN1CCCC(OC(=O)C(c2ccccc2)c2ccccc2)C1` (stereo not drawn): the growth rescue (activation) is inactive: 1.7%. The same measure for `CC(=O)c1ccc(N2CC2c2ccncc2)cc1` (stereo not drawn): inactive: -8.2%. The result for `C[C@@H]1C=CCP(=O)(Oc2ccccc2)O1` (stereo partly drawn) reads inactive: -26.3%; that for `C[C@H]1OP(=O)(Oc2ccccc2)C[C@@H]2O[C@@H]21` (stereo partly drawn), inactive: -13.2%; that for `CC(=O)Nc1ccc(Oc2c([N+](=O)[O-])cc([N+](=O)[O-])cc2[N+](=O)[O-])cc1`, inactive: 26.2%.

As for `CC(=O)Nc1ccc([As](=O)(O)O)c(O)c1`, the growth rescue (activation) is inactive: -9.02%.

As to `CCOc1ccc(C2=NCC(CBr)S2)cc1` (stereo not drawn), the growth rescue (activation) was inactive: -22.6%. The same measure for `O=P1(Nc2nc3ccc(Cl)cc3s2)COc2ccccc2O1` (stereo not drawn): inactive: -39.4%. The result for `CCc1cc(O)c([N+](=O)[O-])c(C)c1[N+](=O)[O-]` reads inactive: -1.03%; that for `CC(C)(C)C(=O)NC(Sc1ccccc1)C(Cl)(Cl)Cl` (stereo not drawn), inactive: -5.79%; that for `Cc1ccc(OP(=O)(Nc2ccccn2)Oc2ccc(C)cc2)cc1`, inactive: 10.7%.

Turning to `CC(=O)NC(SC(=S)N(CC(C)C)CC(C)C)C(Cl)(Cl)Cl` (stereo not drawn), the growth rescue (activation) is inactive: -3.12%. For `COC(=O)c1cc2c(s1)N=C(c1ccccc1)N(C)P2(=O)N1CCOCC1` (stereo not drawn), the growth rescue (activation) is inactive: 5.51%.

As to `CCC(=O)N1C2C3N(C(=O)CC)C1C1N(C(=O)CC)C(C(N1C(=O)CC)N3C(=O)CC)N2C(=O)CC`, the growth rescue (activation) was inactive: 8.16%. The result for `O=C(OC1CN2CCC1CC2)c1ccccc1` (stereo not drawn) reads inactive: 12.7%.

For the compound `CN(C)C(=O)Oc1noc2ccccc12`, the growth rescue (activation) was inactive: -3.19%. The result for `O=c1c2cc([N+](=O)[O-])ccc2[nH]c2c([N+](=O)[O-])cc([N+](=O)[O-])cc12` reads inactive: 10.6%; that for `Cc1ccccc1OP(=O)(Nc1ccccn1)Oc1ccccc1C`, inactive: 5.66%.

For the compound `CC(NC(=O)COC(=O)C(O)(c1ccccc1)c1ccccc1)c1ccccc1` (stereo not drawn), the growth rescue (activation) was inactive: -2.61%.

Take `O=C(NC1CCS(=O)(=O)C1)NP(=S)(Oc1ccccc1)Oc1ccccc1` (stereo not drawn): the growth rescue (activation) is inactive: -2.11%. The result for `CCNC(=S)/N=C(\N)N[N+](=O)[O-]` reads inactive: -7.6%; that for `Cc1ccc(NP(=O)(Oc2cccc(C)c2)Oc2cccc(C)c2)nc1`, inactive: -6.55%. The same measure for `c1ccc(-c2nn[nH]n2)c(-c2nn[nH]n2)c1`: inactive: 13.9%; for `O=P1(N(CCCl)CCCl)OCCC2CCCCN21` (stereo not drawn): inactive: 3.17%.

Take `O=[N+]([O-])c1ncn(CCn2cnc([N+](=O)[O-])n2)n1`: the growth rescue (activation) was inactive: -15.3%. The same measure for `O=[N+]([O-])c1ccc(O)c(/C=N/Nc2ccc([N+](=O)[O-])cc2[N+](=O)[O-])c1`: inactive: -17.3%; for `O=[As](O)(c1ccccc1)c1ccc(O)cc1`: inactive: -3.16%.

`Nc1ccc([As](=O)(O)c2ccc([N+](=O)[O-])cc2)cc1`: the growth rescue (activation) is inactive: 21.3%. The same measure for `C(Cc1nn[nH]n1)Cc1nn[nH]n1`: inactive: -27.2%; for `O=C(OC1CN2CCC1CC2)c1cccc(Cl)c1` (stereo not drawn): inactive: 13.8%. The result for `Nc1ccc(CCCCOc2ccccc2)cc1` reads inactive: 22.7%; that for `COc1ccc(N)c([N+](=O)[O-])c1[N+](=O)[O-]`, inactive: -13.1%. The same measure for `CN(C)C1(CNC(=O)c2ccc(Cl)c(S(N)(=O)=O)c2)CCCCC1`: inactive: 4.78%; for `O=P(Nc1ccccn1)(c1ccc(Br)cc1)c1ccc(Br)cc1`: inactive: 52.9%; for `C[C@H]1OP(=O)(Oc2ccccc2)[C@H](O)[C@H](O)[C@H]1N=[N+]=[N-]` (stereo partly drawn): inactive: 14.5%. Regarding `O=P(Nc1nc2ccccc2s1)(c1ccccc1)c1ccccc1`, the growth rescue (activation) is inactive: 29.6%. Consider `O=P(Nc1nccs1)(c1ccccc1)c1ccccc1`, for which the growth rescue (activation) is inactive: -20.4%. The same measure for `CC(C)C(=O)NC(Sc1ccccc1)C(Cl)(Cl)Cl` (stereo not drawn): inactive: 14.9%. The same measure for `c1nnnn1CCn1cnnn1`: inactive: -7.7%.

The values are drawn from PubChem BioAssay AID1347120 (National Center for Advancing Translational Sciences (NCATS), 2019).
